# Measured values as given in article PMC7993833, “EDP-938, a novel nucleoprotein inhibitor of respiratory syncytial virus, demonstrates potent antiviral activities in vitro and in a non-human primate model” (PLoS Pathogens, 2021).
# How the values were obtained:
# various RSV strains = assay: Impact of protein binding on anti-RSV activity; conditions: HSA 40 mg/mL or alpha-1-acid glycoprotein 0.9 mg/mL; range of RSV strains and cell types
# RSV-A2 [1] = assay: Immunofluorescence analysis of RSV inclusion bodies; conditions: HEp-2; RSV-A2 MOI 3; 1000 nM; 8 hpi; N-protein antibody
# RSV-A2 [2] = assay: Primary viral transcription after synchronized infection (RT-qPCR of N gene); conditions: HEp-2; RSV-A2 MOI 3; 1000 nM added at 0 hpi; 0-6 hpi
smiles,measurement,setting,value
O=C1Nc2ccccc2C(c2ccccc2)=N[C@@H]1Nc1nnc(-c2ncc(C(F)(F)F)cc2N2CCOCC2)o1 [EDP-938],shift in potency in the presence of human serum albumin or alpha-1-acid glycoprotein,various RSV strains,2- to 5 fold
same,RSV inclusion body formation,RSV-A2 [1],the majority of the cells did not present inclusions
same,RSV primary transcription (positive sense N RNA),RSV-A2 [2],transcription was inhibited with no significant increase above the background
